From patent US20230357152A1 (priority 2020, published 2023)

What was measured:
[1] = system: Phakopsora pachyrhizi (strain with F129L substitution in mitochondrial cytochrome b protein); test: Protective control of soybean rust on soybeans, inoculation 2 days after spraying (PHAKPA P2), greenhouse; format: in vivo; settings: inoculation 2 days after treatment
[2] = system: Phakopsora pachyrhizi (strain with F129L substitution in mitochondrial cytochrome b protein); test: Protective control of soybean rust on soybeans, inoculation 6 days after spraying (PHAKPA P6), greenhouse; format: in vivo; settings: inoculation 6 days after treatment
[3] = 4 ppm spray, soybean, % diseased leaf area
[4] = 16 ppm spray, soybean, % diseased leaf area
[5] = comparative trial (Table C1), 4 ppm
[6] = comparative trial (Table C1), 16 ppm

Structure (SMILES)	PHAKPA (F129L) Disease level (%) P2 at 4 ppm [1, 3]	PHAKPA (F129L) Disease level (%) P2 at 16 ppm [1, 4]	PHAKPA (F129L) Disease level (%) P6 at 4 ppm [2, 3]	PHAKPA (F129L) Disease level (%) P6 at 16 ppm [2, 4]	PHAKPA (F129L) Disease level (%) P2 at 4 ppm [1, 5]	PHAKPA (F129L) Disease level (%) P6 at 4 ppm [2, 5]	PHAKPA (F129L) Disease level (%) P2 at 16 ppm [1, 6]	PHAKPA (F129L) Disease level (%) P6 at 16 ppm [2, 6]
CO/N=C(/C(=O)OC)c1cccc(C)c1CO/N=C(\C)c1cc(-c2ccc(Cl)cc2)sn1 [Example 7]	31%	22%	42%	26%	–	–	–	–
CNC(=O)/C(=N/OC)c1cccc(C)c1CO/N=C(\C)c1cc2ccccc2cn1 [Example 67]	80%	22%	97%	50%	–	–	–	–
CNC(=O)/C(=N/OC)c1cccc(C)c1CO/N=C(\C)c1cc(C)ccn1 [Example 26]	63%	11%	90%	73%	–	–	–	–
CNC(=O)/C(=N/OC)c1cccc(C)c1CO/N=C(\C)c1nccc2ccccc12 [Example 45]	83%	25%	87%	63%	–	–	–	–
CO/N=C(/C(=O)OC)c1cccc(C)c1CO/N=C(\C)c1cccc(C(F)(F)F)n1 [Example 1]	80%	57%	70%	73%	–	–	–	–
CNC(=O)/C(=N/OC)c1cccc(C)c1CO/N=C(\C)c1nccc(C(F)(F)F)n1 [Example 73]	53%	4%	47%	15%	–	–	–	–
CNC(=O)/C(=N/OC)c1cccc(C(F)(F)F)c1CO/N=C(\C)c1cc(-c2ccc(Cl)cc2)on1 [Example 17]	100%	100%	90%	93%	–	–	–	–
CNC(=O)/C(=N/OC)c1cccc(C)c1CO/N=C(\C)c1cc(OC)ccn1 [Example 56]	22%	6%	57%	1%	–	–	–	–
CO/N=C(/C(=O)OC)c1cccc(C)c1CO/N=C(\C)c1cnc(C)c(F)c1 [Example 100]	97%	90%	–	73%	–	–	–	–
CNC(=O)/C(=N/OC)c1cccc(C)c1CO/N=C(\C)c1cc(-c2ccccc2)sn1 [Example 38]	20%	12%	13%	5%	–	–	–	–
CNC(=O)/C(=N/OC)c1cccc(C)c1CO/N=C(\C)c1cnc(C)c(F)c1 [Example 101]	67%	32%	97%	77%	–	–	–	–
CO/N=C(/C(=O)OC)c1cccc(C)c1CO/N=C(\C)c1nccc2ccccc12 [Example 44]	100%	87%	83%	63%	–	–	–	–
CNC(=O)/C(=N/OC)c1cccc(C)c1CO/N=C(\C)c1cc(-c2ccc(Cl)cc2)on1 [Example 20]	63%	40%	60%	40%	–	–	–	–
CO/N=C(/C(=O)OC)c1cccc(C)c1CO/N=C(\C)c1ccc(Cl)nn1 [Example 91]	98%	88%	53%	90%	–	–	–	–
CNC(=O)/C(=N/OC)c1cccc(C)c1CO/N=C(\C)c1cc(C(F)(F)F)nc(C)n1 [Example 58]	22%	6%	57%	1%	–	–	–	–
CO/N=C(/C(=O)OC)c1cccc(C)c1CO/N=C(\C)c1cncn1C [Example 102]	100%	100%	100%	100%	–	–	–	–
CNC(=O)/C(=N/OC)c1cccc(C)c1CO/N=C(\C)c1cccc(OC)n1 [Example 3]	50%	8%	60%	28%	–	–	–	–
CO/N=C(/C(=O)OC)c1cccc(C)c1CO/N=C(\C)c1cc(C(F)(F)F)ccn1 [Example 4, Methyl (2E)-2-methoxyimino-2-[3-methyl-2-[[(E)-1-[4-(trifluoromethyl)-2-pyridyl]ethylideneamino]oxymethyl]phenyl]acetate]	–	–	–	–	9%	12%	–	–
CO/N=C(/C(=O)OC)c1cccc(C)c1CO/N=C(\C)c1cc(-c2cccc(C(F)(F)F)c2)sn1 [Example 35]	37%	40%	50%	25%	–	–	–	–
CO/N=C(/C(=O)OC)c1cccc(C)c1CO/N=C(\C)c1cc(-c2cccc(C(F)(F)F)c2)on1 [Example 19]	100%	94%	97%	88%	–	–	–	–
CO/N=C(/C(=O)OC)c1cccc(C)c1CO/N=C(\C)c1nccc(C(F)(F)F)n1 [Example 71]	56%	5%	54%	9%	–	–	–	–
CO/N=C(/C(=O)OC)c1ccccc1CO/N=C(\C)c1cccc(C(F)(F)F)c1 [Trifloxystrobin, trifloxy-strobin, reference compound]	–	–	–	–	97%	100%	37%	53%
CO/N=C(/C(=O)OC)c1cccc(C)c1CO/N=C(\C)c1ccc(C#CC2CC2)nc1 [Example 68]	90%	80%	87%	87%	–	–	–	–
CNC(=O)/C(=N/OC)c1cccc(C)c1CO/N=C(\C)c1cncc(/C(C)=N/OC)n1 [Example 83]	97%	90%	93%	47%	–	–	–	–
CO/N=C(/C(=O)OC)c1cccc(C)c1CO/N=C(\C)c1ncsc1C(F)(F)F [Example 40]	100%	18%	83%	25%	–	–	–	–
CNC(=O)/C(=N/OC)c1cccc(C)c1CO/N=C(\C)c1cc(-c2ccc(Cl)cc2)sn1 [Example 8]	73%	27%	53%	40%	–	–	–	–
CO/N=C(/C(=O)OC)c1cccc(C)c1CO/N=C(\C)c1cn(C)nc1C(F)(F)F [Example 51]	100%	87%	97%	60%	–	–	–	–
